The nature of experiment [1]: ATG_PPRE_CIS: Attagene CIS-FACTORIAL HepG2 Assay for human Peroxisome Proliferator-activated Response Element (PPRE) (AID 2282958). The following applies: HepG2 PPRE cis-element reporter, Attagene transcription factor profiling; actives raise or lower the signal.
Experiment [2] in a line: ATG_RORE_CIS: Attagene CIS-FACTORIAL HepG2 Assay for human RAR-related Orphan Receptor Element (RORE) (AID 2282959). Conditions: HepG2 Attagene cis-factorial RORE reporter, mRNA; actives raise or lower the signal.

Only a part is listed here, and it is no random draw. Active and inactive are the calls of the source. How the source made its calls: active means hit-call score of the fitted dose curve at least 0.9, where 1 is the maximum; inactive means score below 0.9.

As to `OCCN(CCO)c1ccccc1`, the outcome in experiment [1] and in experiment [2] was inactive.

With `C=CC(C)(O)CCC=C(C)C` (stereo not given), the call in experiment [1] and in experiment [2] was inactive.

In the case of `Nc1cccc(S(=O)(=O)c2cccc(N)c2)c1`, the result in experiment [2] was inactive.

By AC50 is commonly meant the concentration giving half of the maximal activity seen. Regarding `CCCCCCCCCCCCCCO`, the concentration at half-maximal activity (AC50) in experiment [1] was active: 132 µM. In addition, the result in experiment [2] was inactive.

Turning to `Nc1nc2ccccc2[nH]1`, the compound was called inactive in experiment [1] and in experiment [2].

`COC(=O)C1=C(C)NC(C)=C(C(=O)OCC(C)C)C1c1ccccc1[N+](=O)[O-]` (stereo not given): the call in experiment [1] and in experiment [2] was inactive.

Consider `CCn1nc(C)c2c1C(=O)NCC(c1ccc(O)cc1)=N2`, for which the compound was classed as inactive in experiment [2].

Turning to `O=S(=O)(O)c1cc(S(=O)(=O)O)c2c(N=Nc3ccccc3)c(O)ccc2c1`, in experiment [2], the compound was called inactive.

Take `CCCCC(CC)COC(=O)CS` (stereo not given): the compound was classed as inactive in experiment [2].

On to `COc1ccc(O)cc1`, for which the compound was called inactive in experiment [2].

With `CCCCC(CC)COC(=O)CCCCCCCC(=O)OCC(CC)CCCC` (stereo not given), in experiment [2], the result was inactive.

For the compound `O=S(=O)(O)c1ccc2ccccc2c1`, the compound was called inactive in experiment [2].

On to `CCNc1nc(N)nc(Cl)n1`, for which the result in experiment [2] was inactive.

Take `CCOC(=O)[C@@H](C)Oc1ccc(Oc2nc3ccc(Cl)cc3o2)cc1`: in experiment [2], the outcome was inactive.

Consider `CCCCCC1=CCCC1=O`, for which, in experiment [2], the AC50 is active: 163 µM.

In the case of `CCNc1nc(NC(C)(C)C)nc(OC)n1`, the call in experiment [2] was inactive.

For the compound `NCC1CCCC(CN)C1` (stereo not given), the outcome in experiment [2] was inactive.

On to `CN(C)C(=O)NC1(c2ccccc2)CCN(CC[C@@]2(c3ccc(F)c(F)c3)CN(C(=O)c3ccccc3)CCO2)CC1`, for which the compound was called inactive in experiment [2].

In the case of `CCOC(=O)c1ccc(C2CCC(NC[C@H](O)COc3ccc(O)c(NS(C)(=O)=O)c3)CC2)cc1` (stereo not given in full), the AC50 in experiment [2] is active: 57.9 µM.

As to `Cc1cccc([N+](=O)[O-])c1C`, the outcome in experiment [2] was inactive.

With `CCCCCCCCCOS(=O)(=O)O`, in experiment [2], the outcome was inactive.

As for `O=C(O)C[C@H](O)C[C@H](O)/C=C/c1c(C2CC2)nc2ccccc2c1-c1ccc(F)cc1`, the call in experiment [2] was inactive.

As to `OC[C@H]1O[C@@H](O[C@H]2[C@H](O)[C@@H](O)[C@H](O)O[C@@H]2CO)[C@H](O)[C@@H](O)[C@H]1O`, the result in experiment [2] was inactive.

Consider `O=c1[nH]c(=O)n([C@H]2CCCO2)cc1F`, for which, in experiment [2], the compound was called inactive.

As for `CC(C)C(OC(=O)c1ccccc1)C(C)(C)COC(=O)c1ccccc1` (stereo not given), the compound was called inactive in experiment [2].

Consider `CC1(C)O[C@@H]2C[C@H]3[C@@H]4C[C@H](F)C5=CC(=O)C=C[C@]5(C)[C@@]4(F)[C@@H](O)C[C@]3(C)[C@]2(C(=O)CO)O1`, for which the outcome in experiment [2] was inactive.

On to `C=C1[C@H]2CC[C@@H]3[C@H]2C(C)(C)CCC[C@]13C`, for which the compound was classed as inactive in experiment [2].

As to `O=C1CCC(N2C(=O)c3ccccc3C2=O)C(=O)N1` (stereo not given), in experiment [2], the outcome was inactive.

As to `O=C(O)CCN(C1(C(=O)NO)CCCC1)S(=O)(=O)c1ccc(Oc2ccc(F)cc2)cc1`, in experiment [2], the outcome was inactive.

As to `CC(C)CCCCCOC(=O)CCS`, in experiment [2], the outcome was inactive.

Source of the values: PubChem BioAssay (EPA / NIEHS).
